Measurements as given in patent US9023398B2, “Method for improving the aqueous solubility of poorly-soluble substances” (Kabushiki Kaisha Sangi, priority 2009, dated 2015).

Assay: Dissolution test of poorly-soluble substances using 2nd fluid for disintegration test (pH 6.8) of the Japanese Pharmacopoeia
Format: physicochemical

Dissolved amount (elution time 10 min)	Dissolved amount (elution time 120 min)	Dissolved amount (elution time 360 min)	SMILES	Dissolved amount (Estradiol Enanthate, elution time 10 min)
2514.7 µg/mL	2588.4 µg/mL	2548.2 µg/mL	CC(=O)SC[C@@H](C)C(=O)N1CCC[C@H]1C(=O)N[C@@H](Cc1ccccc1)C(=O)O [compound 24, Alacepril]	–
–	–	–	CCCCCCC(=O)O[C@H]1CC[C@H]2[C@@H]3CCc4cc(O)ccc4[C@H]3CC[C@]12C [compound 44, Estradiol Enanthate]	10.2 µg/mL
